# Nrf2 ARE act = Nrf2 pathway activation. AREc32 ARE-luciferase reporter (MCF7-derived line), luminescence, 24 h. Potency, µM (top dose mostly 46.1 µM), for inactives: at the top dose activation, hits mostly activators. hit rate 0.31% among 410,000. AID 624171; note: potency is the fitted concentration of half-maximal effect; % of control where 0% means no effect; nearly all actives have a fitted effect of over 65% in size
#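 Reporter line AREc32 (ARE-Fluc), seeded overnight in OPTI-MEM with 5% FBS; compound pin-transferred, 24 hr at 37 deg C, 5% CO2; luminescent read-out.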
# miR-21 reporter = raises the signal of a miR-21 reporter | HeLa miR-21 FLuc reporter, luciferase, 48 h | Potency, µM (highest dose often 38.3 µM), without a hit: at the top dose reporter change, positive = more light | 340,000 tested, under 10 active; active = well fitted rising curve with a large enough effect; inconclusive = small, poorly fitted or top-dose-only effect; inactive = no such curve, though single readings can be large or run the other way;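 note: % of control where 0% means no effect; miR-21 action dims this reporter so a rising signal means less miR-21 action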
#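 Compounds were titrated across several concentrations (up to approximately 40 uM) and incubated 48 hours with HeLa miR-21-FLuc reporter cells (miR-21 target sequence downstream of FLuc, endogenous miR-21). Readout was firefly luciferase luminescence after lytic detection reagent.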
# PI4K2A inh = PI4K2A (human) kinase inhibition; hit rate 0.13% among 420,000; purified PI4K2A, ADP-Glo luminescence, 1 h; hits give low values; AID 1346378; activity change, negative = inhibition, % at 76.9 µM; in the data active = activity change below about -50%; inconclusive = mostly about -30% to -49%;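 note: -100% = wells without enzyme as full effect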
#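 PI4K2A activity was measured by ADP-Glo luminescence: enzyme (4 ug/mL stock) and phosphatidylinositol (1.2 mM stock) in Tris pH 7.5/MgCl2/EGTA/Triton X-100 buffer were reacted with ATP (300 microM stock) for one hour at ambient temperature.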
# Nrf2 inh = Nrf2 pathway inhibition | A549 ARE-Fluc reporter, luciferase luminescence, 18-24 h | Potency, µM (highest dose often 46 µM), inactives show at the highest dose activity change, negative = inhibition, actives largely listed as inhibitors | hit rate 2.1% among 360,000 | AID 504444; note: potency is the fitted concentration of half-maximal effect; % is set by controls: 0 for no effect and ±100 for the full control effect; nearly all actives have a fitted effect of over 60% in size
#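 In this cell-based qHTS, ARE-driven firefly luciferase in A549 cells reports Nrf2 activity; the luminescent signal after BugLite lysis is the measured value, with a prior CellTiter-Fluor read for cell health.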
# GALK inh = inhibitors of human galactokinase; Purified GALK, Kinase-Glo residual ATP luminescence; Potency, µM (top dose mostly 57.5 µM), for the others: at the top dose activity change, negative = inhibition, usual class: inhibitors; hit rate 0.007% among 270,000; AID 1868; note: potency is the fitted concentration of half-maximal effect; % is set by controls: 0 for no effect and ±100 for the full control effect
#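 ATP-depletion format; final 35 uM ATP, 100 uM D-galactose, 5 nM enzyme; pH 8.0 HEPES/Mg2+ buffer; 60 min RT; luminescence read 10 min after detection reagent.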
# A549 tox-1 = counter-screen for Nrf2 inhibitors: cytotoxicity in A549 cells; Potency, µM (highest dose often 46 µM), for inactives: at the highest dose activity change, negative = cytotoxicity, usual class: inhibitors; A549 ARE-Fluc cells, CellTiter-Fluor viability, 18-24 h; AID 504648; hit rate 0.16% among 390,000; note: potency is the fitted concentration of half-maximal effect; % is set by controls: 0 for no effect and ±100 for the full control effect
#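 A549 ARE_Fluc cells in 5% FBS OPTI-MEM were exposed to compounds in concentration-response for 18-24 h at 37 deg C. Viability was read by CellTiter-Fluor fluorescence (Ex 405/Em 525) after 30 min, before the luciferase read.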
# FLuc counter 3 = blocks purified firefly luciferase in Nrf2 counterscreen | shares compounds with Nrf2 inh | purified firefly luciferase, luminescence inhibition | Potency, µM (titrated, usually from 57.5 µM), without a hit: at the highest dose activity change, negative = inhibition, usual class: inhibitors | hit rate 4% among 1,400 | AID 720522; note: potency is the fitted concentration of half-maximal effect; % is set by controls: 0 for no effect and ±100 for the full control effect; nearly all actives have a fitted effect of over 65% in size
# A549 tox-2 = A549 cytotoxicity, Nrf2 inhibitor counterscreen | shares compounds with Nrf2 inh | A549 ARE-Fluc cells, cytotoxicity counterscreen | Potency, µM (series often up to 46.1 µM), inactives show at the highest dose activity change, negative = cytotoxicity, hits mostly inhibitors | hit rate 2% among 1,400;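 note: potency is the fitted concentration of half-maximal effect; cells exposed to compounds for 18 to 24 hours; % is set by controls: 0 for no effect and ±100 for the full control effect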
# ARE-Fluc inh = reduces Nrf2 ARE reporter signal in A549 cells; shares compounds with Nrf2 inh; A549 ARE-firefly luciferase reporter, luminescence; Potency, µM (series often up to 46.1 µM), inactives show at the highest dose activity change, negative = inhibition, hits mostly inhibitors; hit rate 74% among 1,400; AID 720524; note: potency is the fitted concentration of half-maximal effect; % is set by controls: 0 for no effect and ±100 for the full control effect; nearly all actives have a fitted effect of over 65% in size
# Active calls of the source: *; ? = inconclusive; nt = no result. Most compounds without a hit are left out; they make up all but 2.2% or so of the library. Unless noted, calls come from the whole dose curve; as a rule, active = well fitted curve in the direction sought with a large enough effect; inconclusive = small, poorly fitted or top-dose-only effect, or another doubt; inactive = no such curve, though single readings can be large; an effect the other way counts as inactive or inconclusive.
# Under each structure – PI4K2A inh, GALK inh, A549 tox-2, miR-21 reporter, ARE-Fluc inh, Nrf2 ARE act, A549 tox-1, FLuc counter 3, Nrf2 inh
Cn1c(=O)c2cc(S(=O)(=O)Nc3cc(C(=O)O)cc(C(=O)O)c3)ccc2n(C)c1=O
    -3, 0%, nt, 0%, nt, 0%, 5%, nt, 5%
Cc1ccc(-n2c(-c3ccc(Br)cc3)c[n+]3c2CCc2ccc4cccnc4c2-3)cc1
    -4, -6%, ?, ?, 5.8µM*, 6%, -22%, -10%, 2.9µM*
COc1ccc(Cn2ccc3ccc(-c4ccc5ccn(C(=O)c6cccc(OC)c6)c5c4)cc32)cc1
    3, nt, nt, nt, nt, nt, nt, nt, nt
CCN1CCN(C(=S)c2ccc(-c3ccccc3)cc2)CC1
    3, 5%, -2%, 6%, 6.5µM*, -2%, -1%, ?, 5.2µM*
CCN(Cc1ccccc1)S(=O)(=O)c1ccc(C(=O)N2CCN(c3nc4ccccc4s3)CC2)cc1
    -1, 1%, 0%, -8%, 7.3µM*, 0%, -13%, -11%, 1.8µM*
CCc1ccc2nc(N3CCN(C(=O)c4ccccc4)CC3)sc2c1
    1, nt, nt, 13%, nt, 0%, -9%, nt, nt
Clc1cccc(Cl)c1C[n+]1cccc2ccccc21
    0, nt, 4%, nt, ?, -1%, -13%, 1%, 4.1µM*
O=C(C[n+]1cccc2ccccc21)c1ccc(Cl)cc1
    3, 1%, nt, -21%, nt, 2%, 9%, nt, 32%
Cc1ccc(-n2c(COc3ccccc3)nnc2SCC(=O)Nc2ccc3c(c2)OCO3)cc1
    3, nt, nt, nt, nt, nt, nt, nt, nt
COc1ccc(CN2C(=O)CSCCC2(C)c2nnnn2-c2c(C)cccc2C)cc1 (stereo unspecified)
    0, nt, nt, nt, nt, nt, nt, nt, nt
COc1cc2c(NC3CCN(C(C)C)CC3)nc(N3CCCN(C)CC3)nc2cc1OCCOCCN(C)C
    nt, nt, -37%, nt, 6.5µM*, nt, nt, 1%, nt
COc1cc2c(NC3CCN(C(C)C)CC3)nc(N3CCCN(C)CC3)nc2cc1OCCCN1CCCC1
    nt, nt, ?, nt, 1.5µM*, nt, nt, -2%, nt
COc1cc2nc(N3CCN(C(=O)C4CCCO4)CC3)nc(N)c2cc1OC (stereo unspecified)
    -1, 6%, nt, -14%, nt, 1%, -7%, nt, ?
Cc1cc(C(=O)COC(=O)c2ccc(N)c([N+](=O)[O-])c2)c(C)n1-c1ccc2c(c1)OCO2
    -3, -3%, -4%, 7%, ?, 6%, -11%, -6%, 5.8µM*
COC(=O)[C@@]12CCCCC3=C1N(CCC3)C(=O)[C@H]2CC(=O)N1CCN(C(=O)c2ccco2)CC1
    -23, nt, nt, nt, nt, nt, nt, nt, nt

# 4 structures out of the list, arranged by count of non-hydrogen atoms, rising:
# Under each structure – PI4K2A inh, GALK inh, A549 tox-2, miR-21 reporter, ARE-Fluc inh, Nrf2 ARE act, A549 tox-1, FLuc counter 3, Nrf2 inh
CCc1ccc2nc(N3CCN(C(=O)c4ccccc4)CC3)sc2c1
    1, nt, nt, 13%, nt, 0%, -9%, nt, nt
Cn1c(=O)c2cc(S(=O)(=O)Nc3cc(C(=O)O)cc(C(=O)O)c3)ccc2n(C)c1=O
    -3, 0%, nt, 0%, nt, 0%, 5%, nt, 5%
Cc1ccc(-n2c(-c3ccc(Br)cc3)c[n+]3c2CCc2ccc4cccnc4c2-3)cc1
    -4, -6%, ?, ?, 5.8µM*, 6%, -22%, -10%, 2.9µM*
Cc1cc(C(=O)COC(=O)c2ccc(N)c([N+](=O)[O-])c2)c(C)n1-c1ccc2c(c1)OCO2
    -3, -3%, -4%, 7%, ?, 6%, -11%, -6%, 5.8µM*

# (continued)
# Under each structure – PI4K2A inh, GALK inh, A549 tox-2, miR-21 reporter, ARE-Fluc inh, Nrf2 ARE act, A549 tox-1, FLuc counter 3, Nrf2 inh
CSc1ccc(CN(C)C(=O)c2cccc(S(=O)(=O)N3CCN(Cc4ccccc4)CC3)c2)cc1
    2, nt, 13%, nt, ?, 0%, -16%, 1%, 5.8µM*
CN(CCOc1ccc(Cl)cc1)C(=O)c1cccc(S(=O)(=O)N2CCN(Cc3ccccc3)CC2)c1
    6, nt, -29%, nt, 9.2µM*, 0%, -10%, 0%, 8.2µM*
COc1ccccc1CN(C)C(=O)c1cccc(S(=O)(=O)N2CCN(Cc3ccccc3)CC2)c1
    0, nt, nt, nt, nt, 2%, -1%, nt, -12%
CCN(CC)c1ccc(/C=C/c2ccc3ccc(OC)cc3[n+]2CC)cc1
    -26, -7%, ?, ?, 5.2µM*, -3%, ?, -23%, 4.6µM*
CCN(CC)C(=O)c1oc2ccc(S(=O)(=O)N3CC(C)CC(C)C3)cc2c1C (stereo unspecified)
    -22, -3%, -6%, ?, 8.2µM*, 0%, 0%, 0%, 8.2µM*
CCN(CC)C(=O)c1oc2ccc(S(=O)(=O)N3CCCCCC3)cc2c1C
    8, -2%, nt, 15%, nt, 2%, -5%, nt, ?
CCc1nc(N)nc(N)c1-c1ccc(Cl)c(N=[N+]=[N-])c1
    5, nt, nt, nt, nt, 3%, -6%, nt, ?
CCc1nc(N)nc(N)c1-c1ccc(Cl)c([N+](=O)[O-])c1
    -2, nt, -5%, nt, 0.92µM*, 8%, -1%, 1%, 0.37µM*
CC(Sc1nn(-c2ccc(F)cc2)c(=S)s1)C(=O)c1c(N)n(C)c(=O)n(C)c1=O (stereo unspecified)
    -4, nt, nt, nt, nt, 3%, -5%, nt, ?
Cn1c(N)c(C(=O)CSc2nn(-c3ccccc3)c(=S)s2)c(=O)n(C)c1=O
    -1, nt, -12%, nt, 9.2µM*, 0%, -16%, -10%, 7.3µM*
CCn1c(SCc2c(F)cccc2F)nc2sc3c(c2c1=O)CCCC3
    -7, nt, nt, nt, nt, nt, nt, nt, nt
CCCC(=O)Nc1nc(-c2ccc3c(c2)CCN3S(C)(=O)=O)cs1
    -2, -1%, -15%, 7%, ?, 6%, -13%, ?, 8.2µM*
CN(CC(=O)Nc1ccc(Cl)cc1)C(=O)c1ccc(N2CCCC2=O)cc1
    1, nt, nt, nt, nt, 4%, 8%, nt, 6%
CN(CC(=O)Nc1ccc(OC(F)(F)F)cc1)C(=O)c1ccc(N2CCCC2=O)cc1
    -2, nt, 1%, nt, 5.2µM*, 0%, -6%, 2%, 2.9µM*
CCOc1ccc(-n2c(-c3ccccc3)c[n+]3c2CCCCC3)cc1
    -2, -3%, -14%, ?, 5.8µM*, 0%, -18%, 0%, 2.1µM*
c1ccc(-c2c[n+]3c(n2-c2ccccc2)CCC3)cc1
    4, -2%, nt, 20%, nt, 0%, -10%, nt, ?
Cc1ccc(-c2c[n+]3c(n2-c2ccccc2)CCC3)cc1
    -10, -2%, -5%, ?, 13µM*, 2%, -10%, 2%, 6.5µM*
CCC(=O)N1CCc2cc(Br)c(S(=O)(=O)N3CCCC(C(=O)NC(C)(C)C)C3)cc21 (stereo unspecified)
    -4, nt, nt, nt, nt, nt, nt, nt, nt
CC(C)(C)CSc1nnc(-c2cccnc2)n1Cc1ccccc1
    4, nt, nt, nt, nt, nt, nt, nt, nt
C=C(c1nc2ccccc2s1)C1Cc2cccc3c2N(CCC3)C1 (stereo unspecified)
    nt, nt, -72%, nt, 2.6µM*, nt, nt, 12µM*, nt
O=C(c1ccco1)N1CCN(/C=C2\Nc3ccccc3C(=O)N2c2ccc(F)cc2)CC1
    nt, nt, nt, nt, nt, nt, -1%, nt, -5%

# Assay outcomes (PubChem)
